The record followed here is patent US8785486B2, “Imidazo[1,2-A]pyridine derivatives and their use as positive allosteric modulators of mGluR2 receptors” (Janssen Pharmaceuticals, Inc., priority 2007, dated 2014).

Sequences of proteins named here, by UniProt entry; tags and fusion partners are left off. Residues count along the entry.
UniProt Q14416, 19-872 limits assumed: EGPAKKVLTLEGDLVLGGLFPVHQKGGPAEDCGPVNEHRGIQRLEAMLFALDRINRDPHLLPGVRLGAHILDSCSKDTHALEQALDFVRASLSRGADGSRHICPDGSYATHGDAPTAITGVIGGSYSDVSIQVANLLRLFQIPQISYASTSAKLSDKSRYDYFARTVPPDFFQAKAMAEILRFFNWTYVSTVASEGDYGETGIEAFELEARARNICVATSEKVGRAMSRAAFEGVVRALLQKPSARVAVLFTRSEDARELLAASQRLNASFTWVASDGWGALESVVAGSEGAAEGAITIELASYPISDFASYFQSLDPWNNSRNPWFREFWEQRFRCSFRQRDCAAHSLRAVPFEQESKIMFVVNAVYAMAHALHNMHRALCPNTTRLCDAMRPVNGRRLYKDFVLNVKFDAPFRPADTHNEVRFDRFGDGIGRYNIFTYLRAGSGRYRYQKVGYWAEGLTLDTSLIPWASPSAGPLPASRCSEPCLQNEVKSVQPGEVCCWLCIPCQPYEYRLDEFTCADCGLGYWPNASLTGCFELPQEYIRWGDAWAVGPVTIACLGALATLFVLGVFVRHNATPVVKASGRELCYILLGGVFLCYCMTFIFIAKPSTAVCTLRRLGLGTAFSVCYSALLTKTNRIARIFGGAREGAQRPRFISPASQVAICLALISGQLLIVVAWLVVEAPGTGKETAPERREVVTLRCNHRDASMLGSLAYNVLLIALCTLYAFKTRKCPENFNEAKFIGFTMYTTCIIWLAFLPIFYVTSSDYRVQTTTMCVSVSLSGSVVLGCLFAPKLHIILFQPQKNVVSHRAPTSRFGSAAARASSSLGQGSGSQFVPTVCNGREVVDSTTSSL

Structures are written as SMILES.

The target in this test is human mGluR2 receptor (Homo sapiens, UniProt Q14416). The test can be described thus: [35S]GTPγS binding assay (PAM assay) using membranes from cells transfected with the human mGluR2 receptor. To be noted: membranes of CHO cells with human mGluR2; glutamate at predetermined EC25 concentration; averages of duplicate values of 11-concentration response curves.

For the compound `N#Cc1c(-c2ccc(NC3CCC(O)CC3)cc2)ccn2c(CC(F)(F)F)cnc12` (stereo not shown), the “GTPγS - hR2 PAM pEC50” value is reported as 5.87.
